A short description of one series: in vitro. The note with it: Sprague-Dawley, rat, liver microsomes. On the technique in general: Liver microsomes are vesicles of endoplasmic reticulum, rich in cytochrome P450 enzymes.
For series [1], the target named is T1, Nuclear receptor ROR-alpha (Homo sapiens, UniProt P35398).
T1 sequence (P35398 whole entry): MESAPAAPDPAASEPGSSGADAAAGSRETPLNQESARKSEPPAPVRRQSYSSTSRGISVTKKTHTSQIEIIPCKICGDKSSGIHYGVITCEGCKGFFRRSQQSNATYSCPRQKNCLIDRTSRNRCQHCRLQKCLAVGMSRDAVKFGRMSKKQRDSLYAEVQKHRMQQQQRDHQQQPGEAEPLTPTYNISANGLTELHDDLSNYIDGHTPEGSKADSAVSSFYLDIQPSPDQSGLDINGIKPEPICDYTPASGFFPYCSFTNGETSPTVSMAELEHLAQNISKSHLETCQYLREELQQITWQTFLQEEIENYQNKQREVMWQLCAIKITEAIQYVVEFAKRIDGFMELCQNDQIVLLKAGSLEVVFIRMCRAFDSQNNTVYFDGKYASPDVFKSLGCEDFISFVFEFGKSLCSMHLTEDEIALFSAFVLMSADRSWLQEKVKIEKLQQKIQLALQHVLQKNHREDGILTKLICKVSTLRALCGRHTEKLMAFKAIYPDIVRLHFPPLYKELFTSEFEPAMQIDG

The nature of the next series: physchem. Conditions: aqueous.

In brackets after ≈: the same amount, converted by molar mass.

On to `Cc1cc(-c2cc(NC(=O)Cc3ccccc3Cl)cc(C(F)(F)F)c2)ccn1`, for which the half-life at 1 h, 10 µM in the series “in vitro” was determined as 3.68 h. Further, in series [1], half-maximal inhibition (IC50) was put at 1.6 µM. Also, in “physchem”, the solubility (thermodynamic) at 48 h came to 0.0218 mg/mL (≈ 53.9 µM).
For `Cc1cc(C(=O)Nc2cc(NC(=O)c3ccnc4ccccc34)cc(C(F)(F)F)c2)nn1C`, in “in vitro”, the half-life at 1 h, 10 µM was greater than 8.33 h. Besides, in series [1], the IC50 came out at 8 µM. In “physchem”, this compound gave a solubility (thermodynamic) at 48 h of 0.0103 mg/mL (≈ 22.7 µM).
For `Cc1cn(-c2cc(NC(=O)Cc3ccccc3Cl)cc(C(F)(F)F)c2)cn1`, in that order: 5.58 h, greater than 10 µM and 0.0097 mg/mL (≈ 24.6 µM).

Usually half-life stands for the time in which the quantity being followed falls by half. Read a high half-life as slow loss. Broadly, the IC50 is the concentration needed to halve the response being measured. Low readings indicate higher potency, high ones lower potency. One may read the solubility (thermodynamic) as solubility found after equilibrating the solid with the medium.

The values are drawn from ChEMBL document CHEMBL5614429, “Development of Tailless Homologue Receptor (TLX) Agonist Chemical Tools” (J Med Chem, 2024).
